According to publication PMC7864192 (Cancers, 2021):

Key:
[1] = test system: GCPA028 T1.II patient-derived AGCT cell line; experiment: Cell viability drug screen (Cell Titer Glo 2.0, 72 h), mono- and combination therapy, GCPA028
[2] = test system: GCPA096 T1.XVI patient-derived AGCT cell line; experiment: Cell viability drug screen (Cell Titer Glo 2.0, 72 h), mono- and combination therapy, GCPA096T1.XVI; conditions: GCPA096T1XVI
[3] = test system: GCPA113 T1.II patient-derived AGCT cell line; experiment: Cell viability drug screen (Cell Titer Glo 2.0, 72 h), mono- and combination therapy, GCPA113T1.II; conditions: GCPA113T1II
[4] = test system: GCPA113 T1.I patient-derived AGCT cell line; experiment: Cell viability drug screen (Cell Titer Glo 2.0, 72 h), mono- and combination therapy, GCPA113T1.I; conditions: GCPA113T1I
[5] = test system: GCPA096 T1.I patient-derived AGCT cell line; experiment: Cell viability drug screen (Cell Titer Glo 2.0, 72 h), mono- and combination therapy, GCPA096T1.I; conditions: GCPA096T1I
[6] = test system: GCPA096 T1.XV patient-derived AGCT cell line; experiment: Cell viability drug screen (Cell Titer Glo 2.0, 72 h), mono- and combination therapy, GCPA096T1.XV; conditions: GCPA096T1XV
[7] = test system: GCPA108 T3.IV patient-derived AGCT cell line; experiment: Cell viability drug screen (Cell Titer Glo 2.0, 72 h), mono- and combination therapy, GCPA108T3.IV; conditions: GCPA108T3IV
[8] = test system: GCPA007 T2.IV patient-derived AGCT cell line; experiment: Cell viability drug screen (Cell Titer Glo 2.0, 72 h), mono- and combination therapy, GCPA007T2.IV; conditions: GCPA007T2IV
[9] = test system: GCPA007 T2.I patient-derived AGCT cell line; experiment: Cell viability drug screen (Cell Titer Glo 2.0, 72 h), mono- and combination therapy, GCPA007T2.I; conditions: GCPA007T2I
[10] = test system: GCPA096 T1.II patient-derived AGCT cell line; experiment: Cell viability drug screen (Cell Titer Glo 2.0, 72 h), mono- and combination therapy, GCPA096T1.II; conditions: GCPA096T1II
[11] = test system: GCPA096 T1.V patient-derived AGCT cell line; experiment: Cell viability drug screen (Cell Titer Glo 2.0, 72 h), mono- and combination therapy, GCPA096T1.V; conditions: GCPA096T1V
[12] = drug within Carbo+Pacli+6thio2dG
[13] = drug within Carbo+Pacli+Alpelisib
[14] = in combination Carbo+Pacli+6thio2dG
[15] = in combination Carbo+Pacli+Alpelisib

CC(=O)O[C@H]1C(=O)[C@@]2(C)[C@H]([C@H](OC(=O)c3ccccc3)[C@]3(O)C[C@H](OC(=O)[C@H](O)[C@@H](NC(=O)c4ccccc4)c4ccccc4)C(C)=C1C3(C)C)[C@]1(OC(C)=O)CO[C@@H]1C[C@@H]2O [Paclitaxel]
DRI (Fa=0,5) ([1]; GCPA028, in combination Carbo+Pacli): 0.06 | DRI (Fa=0,5) ([1]; GCPA028, in combination Carbo+Pacli+6thio2dG): 0.03 | DRI (Fa=0,5) ([1]; GCPA028, in combination Carbo+Pacli+Alpelisib): 4.93 | DRI (Fa=0,5) ([2]; in Carbo+Pacli): 5.48 | DRI (Fa=0,5) ([2]; in Carbo+Pacli+6thio2dG): 5.05 | DRI (Fa=0,5) ([2]; in Carbo+Pacli+Alpelisib): 20.6 | DRI (Fa=0,5) ([3]; drug within Carbo+Pacli): 1.85 | DRI (Fa=0,5) [3, 12]: 2.34 | DRI (Fa=0,5) [3, 13]: 8.2 | DRI (Fa=0,5) ([4]; in Carbo+Pacli): 1.15 | DRI (Fa=0,5) ([4]; in Carbo+Pacli+6thio2dG): 2.61 | DRI (Fa=0,5) ([4]; in Carbo+Pacli+Alpelisib): 33.24 | DRI (Fa=0,5) ([5]; in combination Carbo+Pacli): 4.8 | DRI (Fa=0,5) [5, 14]: 7.79 | DRI (Fa=0,5) [5, 15]: 19.8 | DRI (Fa=0,5) ([6]; drug within Carbo+Pacli): 3.41 | DRI (Fa=0,5) [6, 12]: 9.39 | DRI (Fa=0,5) [6, 13]: 30.81 | DRI (Fa=0,5) ([7]; in Carbo+Pacli): 21.373 | DRI (Fa=0,5) ([7]; in Carbo+Pacli+6thio2dG): 16.0626 | DRI (Fa=0,5) ([7]; in Carbo+Pacli+Alpelisib): 212.32 | DRI (Fa=0,5) ([8]; in combination Carbo+Pacli): 3.69 | DRI (Fa=0,5) [8, 14]: 1.83 | DRI (Fa=0,5) [8, 15]: 51.12 | DRI (Fa=0,5) ([9]; in Carbo+Pacli (10:1)): 1.46 | DRI (Fa=0,5) ([9]; in Carbo+Pacli+6thio2dG (10:1:1)): 0.84 | DRI (Fa=0,5) ([9]; in Carbo+Pacli+Alpelisib (10:1:2)): 76.3 | DRI (Fa=0,5) ([10]; drug within Carbo+Pacli): 6.18 | DRI (Fa=0,5) [10, 12]: 12.77 | DRI (Fa=0,5) [10, 13]: 31.92 | DRI (Fa=0,5) ([11]; drug within Carbo+Pacli): 3.02 | DRI (Fa=0,5) [11, 12]: 11.84 | DRI (Fa=0,5) [11, 13]: 43.02
